According to patent US20260384438A1, “PYRROLOPYRIMIDINE CARBOXAMIDES” (published 2026):
Where “and” joins values, the source holds several entries; their conditions need not be identical. Identical values can stand only once. Like-named read-outs stand apart in the source and are kept apart here.

Sequences of proteins named here, by UniProt entry; tags and fusion partners are left off. Residues count along the entry.
UniProt P57058, whole entry: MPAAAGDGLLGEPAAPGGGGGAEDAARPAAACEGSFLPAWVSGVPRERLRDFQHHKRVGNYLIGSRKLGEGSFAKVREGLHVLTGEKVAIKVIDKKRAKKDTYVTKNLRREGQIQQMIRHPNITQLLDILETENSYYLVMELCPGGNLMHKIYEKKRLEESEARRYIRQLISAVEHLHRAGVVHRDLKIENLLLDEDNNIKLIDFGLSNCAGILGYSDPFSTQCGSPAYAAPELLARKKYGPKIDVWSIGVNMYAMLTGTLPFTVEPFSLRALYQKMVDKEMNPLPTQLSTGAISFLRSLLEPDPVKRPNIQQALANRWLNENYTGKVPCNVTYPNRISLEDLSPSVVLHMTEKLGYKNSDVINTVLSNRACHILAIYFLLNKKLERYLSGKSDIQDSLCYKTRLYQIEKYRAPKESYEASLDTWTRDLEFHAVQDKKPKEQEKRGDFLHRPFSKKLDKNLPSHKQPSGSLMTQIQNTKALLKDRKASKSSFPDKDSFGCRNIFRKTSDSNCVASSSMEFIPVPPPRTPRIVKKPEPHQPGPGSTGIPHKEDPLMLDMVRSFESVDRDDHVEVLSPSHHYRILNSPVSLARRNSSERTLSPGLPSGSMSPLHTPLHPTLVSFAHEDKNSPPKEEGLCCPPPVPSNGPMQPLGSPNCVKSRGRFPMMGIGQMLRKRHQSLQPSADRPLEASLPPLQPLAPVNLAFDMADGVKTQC
UniProt Q2M2I8, whole entry: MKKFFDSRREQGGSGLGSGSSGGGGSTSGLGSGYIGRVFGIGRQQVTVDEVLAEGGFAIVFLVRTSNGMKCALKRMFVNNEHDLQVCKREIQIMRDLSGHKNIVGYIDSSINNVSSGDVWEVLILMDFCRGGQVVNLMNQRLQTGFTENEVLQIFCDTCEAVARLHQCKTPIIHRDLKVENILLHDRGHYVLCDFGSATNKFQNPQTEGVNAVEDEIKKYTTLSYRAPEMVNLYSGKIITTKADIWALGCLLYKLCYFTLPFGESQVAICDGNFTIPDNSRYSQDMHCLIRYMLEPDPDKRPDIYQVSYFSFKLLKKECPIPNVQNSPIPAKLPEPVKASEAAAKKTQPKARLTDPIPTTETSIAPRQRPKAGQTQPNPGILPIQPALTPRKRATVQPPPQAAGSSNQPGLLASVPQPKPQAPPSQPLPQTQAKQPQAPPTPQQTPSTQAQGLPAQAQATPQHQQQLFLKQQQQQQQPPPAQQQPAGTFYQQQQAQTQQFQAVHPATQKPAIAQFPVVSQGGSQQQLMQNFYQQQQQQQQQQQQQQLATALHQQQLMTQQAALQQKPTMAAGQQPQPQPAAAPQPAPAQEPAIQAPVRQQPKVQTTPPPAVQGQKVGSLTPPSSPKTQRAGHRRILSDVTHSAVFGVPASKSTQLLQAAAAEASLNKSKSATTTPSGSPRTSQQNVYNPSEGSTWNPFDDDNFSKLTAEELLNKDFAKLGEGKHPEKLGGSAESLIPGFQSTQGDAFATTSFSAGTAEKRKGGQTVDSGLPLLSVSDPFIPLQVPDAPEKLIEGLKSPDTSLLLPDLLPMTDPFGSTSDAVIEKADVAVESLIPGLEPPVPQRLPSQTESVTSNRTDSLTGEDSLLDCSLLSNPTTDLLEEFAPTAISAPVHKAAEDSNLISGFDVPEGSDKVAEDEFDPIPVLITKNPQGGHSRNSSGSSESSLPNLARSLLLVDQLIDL
UniProt Q99759, whole entry: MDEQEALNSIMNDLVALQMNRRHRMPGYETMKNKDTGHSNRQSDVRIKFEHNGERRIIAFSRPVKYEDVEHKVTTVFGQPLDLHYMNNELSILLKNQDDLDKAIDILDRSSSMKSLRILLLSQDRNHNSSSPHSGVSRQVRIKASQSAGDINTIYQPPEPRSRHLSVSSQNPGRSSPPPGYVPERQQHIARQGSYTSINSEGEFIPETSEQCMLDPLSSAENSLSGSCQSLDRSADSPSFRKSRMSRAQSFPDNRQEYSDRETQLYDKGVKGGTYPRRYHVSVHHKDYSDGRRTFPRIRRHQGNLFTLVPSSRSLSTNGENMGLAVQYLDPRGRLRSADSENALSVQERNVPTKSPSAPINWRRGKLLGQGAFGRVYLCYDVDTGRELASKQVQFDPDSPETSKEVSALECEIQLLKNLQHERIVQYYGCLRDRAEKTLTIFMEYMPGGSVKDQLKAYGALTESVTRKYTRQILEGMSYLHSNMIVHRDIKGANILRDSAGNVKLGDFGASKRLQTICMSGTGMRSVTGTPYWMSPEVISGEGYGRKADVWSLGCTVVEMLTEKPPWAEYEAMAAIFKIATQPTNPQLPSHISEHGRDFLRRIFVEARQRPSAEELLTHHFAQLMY
UniProt Q16584, whole entry: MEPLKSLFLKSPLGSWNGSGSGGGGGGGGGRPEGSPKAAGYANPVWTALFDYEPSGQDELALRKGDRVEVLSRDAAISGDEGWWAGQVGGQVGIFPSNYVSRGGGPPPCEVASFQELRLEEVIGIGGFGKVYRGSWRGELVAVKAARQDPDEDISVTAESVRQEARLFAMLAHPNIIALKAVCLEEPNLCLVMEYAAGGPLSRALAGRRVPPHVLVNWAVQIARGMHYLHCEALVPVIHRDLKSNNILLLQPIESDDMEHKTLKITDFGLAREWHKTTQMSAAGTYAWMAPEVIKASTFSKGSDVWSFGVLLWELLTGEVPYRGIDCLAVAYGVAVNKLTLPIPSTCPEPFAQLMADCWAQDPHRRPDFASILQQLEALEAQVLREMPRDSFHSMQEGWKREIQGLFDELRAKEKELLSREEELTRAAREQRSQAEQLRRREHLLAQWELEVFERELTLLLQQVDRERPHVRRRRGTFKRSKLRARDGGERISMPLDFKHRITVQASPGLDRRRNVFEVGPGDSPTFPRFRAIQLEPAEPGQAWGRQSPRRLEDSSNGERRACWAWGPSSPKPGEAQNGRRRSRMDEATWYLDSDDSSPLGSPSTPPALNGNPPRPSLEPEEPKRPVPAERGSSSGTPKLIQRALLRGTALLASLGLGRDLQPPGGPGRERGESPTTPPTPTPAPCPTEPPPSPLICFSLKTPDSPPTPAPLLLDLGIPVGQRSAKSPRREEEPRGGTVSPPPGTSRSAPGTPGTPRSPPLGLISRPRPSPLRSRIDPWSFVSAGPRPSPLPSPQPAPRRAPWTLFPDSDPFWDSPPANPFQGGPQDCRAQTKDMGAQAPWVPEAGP
UniProt Q13131, whole entry: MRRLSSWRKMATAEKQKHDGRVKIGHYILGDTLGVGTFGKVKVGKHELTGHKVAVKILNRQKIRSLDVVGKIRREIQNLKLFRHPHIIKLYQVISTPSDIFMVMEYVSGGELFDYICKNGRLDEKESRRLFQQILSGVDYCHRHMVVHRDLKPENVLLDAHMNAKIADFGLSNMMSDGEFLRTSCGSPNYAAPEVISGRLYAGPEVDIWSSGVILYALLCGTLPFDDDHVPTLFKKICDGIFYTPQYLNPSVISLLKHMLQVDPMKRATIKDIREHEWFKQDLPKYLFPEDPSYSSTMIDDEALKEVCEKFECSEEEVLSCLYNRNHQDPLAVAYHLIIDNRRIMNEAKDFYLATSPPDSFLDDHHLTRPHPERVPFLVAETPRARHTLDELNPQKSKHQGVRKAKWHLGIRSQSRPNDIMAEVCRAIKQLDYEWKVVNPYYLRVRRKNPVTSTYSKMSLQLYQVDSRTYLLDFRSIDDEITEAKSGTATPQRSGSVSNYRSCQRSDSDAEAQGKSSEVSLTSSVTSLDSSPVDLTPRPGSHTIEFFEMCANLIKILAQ
UniProt O15530, whole entry: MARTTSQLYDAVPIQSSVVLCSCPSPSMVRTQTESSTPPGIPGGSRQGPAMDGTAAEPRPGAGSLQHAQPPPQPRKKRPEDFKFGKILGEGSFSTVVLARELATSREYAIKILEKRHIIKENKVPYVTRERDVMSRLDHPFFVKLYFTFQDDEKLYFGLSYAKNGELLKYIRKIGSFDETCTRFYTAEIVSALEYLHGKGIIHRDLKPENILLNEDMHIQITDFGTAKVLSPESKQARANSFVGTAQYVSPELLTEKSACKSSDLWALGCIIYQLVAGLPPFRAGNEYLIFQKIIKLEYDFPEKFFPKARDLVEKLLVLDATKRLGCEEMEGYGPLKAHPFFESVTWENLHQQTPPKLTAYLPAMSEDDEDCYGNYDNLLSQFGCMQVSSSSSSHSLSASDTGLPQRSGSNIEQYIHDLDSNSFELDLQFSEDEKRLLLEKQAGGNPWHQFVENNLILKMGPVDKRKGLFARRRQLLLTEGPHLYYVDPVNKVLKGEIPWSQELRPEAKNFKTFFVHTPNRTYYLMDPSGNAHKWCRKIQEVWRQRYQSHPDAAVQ
UniProt Q16539, whole entry: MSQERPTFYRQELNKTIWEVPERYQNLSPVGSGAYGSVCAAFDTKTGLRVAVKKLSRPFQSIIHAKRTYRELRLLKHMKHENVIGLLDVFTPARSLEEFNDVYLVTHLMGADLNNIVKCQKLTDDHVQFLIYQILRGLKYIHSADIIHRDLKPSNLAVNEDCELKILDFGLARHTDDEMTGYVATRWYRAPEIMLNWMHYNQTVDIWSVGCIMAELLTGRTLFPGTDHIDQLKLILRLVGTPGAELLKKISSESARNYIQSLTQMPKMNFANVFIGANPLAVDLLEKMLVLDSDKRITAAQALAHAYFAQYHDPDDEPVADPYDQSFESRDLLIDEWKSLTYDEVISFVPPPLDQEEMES
UniProt P54756, 25-1037 limits assumed: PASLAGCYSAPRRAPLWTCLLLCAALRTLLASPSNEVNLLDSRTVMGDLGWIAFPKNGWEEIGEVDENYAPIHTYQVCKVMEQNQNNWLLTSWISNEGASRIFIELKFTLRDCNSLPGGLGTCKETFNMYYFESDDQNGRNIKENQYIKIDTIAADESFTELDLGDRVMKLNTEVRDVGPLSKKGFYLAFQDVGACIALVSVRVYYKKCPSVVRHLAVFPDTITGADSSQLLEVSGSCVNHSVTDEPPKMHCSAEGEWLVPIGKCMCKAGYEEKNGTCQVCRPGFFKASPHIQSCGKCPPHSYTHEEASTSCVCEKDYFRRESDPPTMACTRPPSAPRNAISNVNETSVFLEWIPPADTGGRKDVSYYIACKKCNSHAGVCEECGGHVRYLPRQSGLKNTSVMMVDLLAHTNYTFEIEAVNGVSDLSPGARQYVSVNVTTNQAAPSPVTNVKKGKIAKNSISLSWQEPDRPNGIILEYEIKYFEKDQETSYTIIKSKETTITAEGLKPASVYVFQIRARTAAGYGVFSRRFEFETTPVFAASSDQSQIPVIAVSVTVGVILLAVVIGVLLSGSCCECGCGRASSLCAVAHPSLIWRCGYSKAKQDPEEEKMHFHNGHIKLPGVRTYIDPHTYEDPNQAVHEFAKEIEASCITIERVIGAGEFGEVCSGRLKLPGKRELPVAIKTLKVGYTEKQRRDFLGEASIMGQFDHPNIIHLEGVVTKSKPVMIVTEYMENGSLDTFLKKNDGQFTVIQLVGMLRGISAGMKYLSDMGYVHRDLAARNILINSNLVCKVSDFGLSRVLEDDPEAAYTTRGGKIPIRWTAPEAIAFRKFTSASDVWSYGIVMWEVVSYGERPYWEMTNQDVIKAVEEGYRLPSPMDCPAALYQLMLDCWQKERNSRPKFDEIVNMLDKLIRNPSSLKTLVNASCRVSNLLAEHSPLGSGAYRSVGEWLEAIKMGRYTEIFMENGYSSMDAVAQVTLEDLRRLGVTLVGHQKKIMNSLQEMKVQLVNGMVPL
UniProt P36897, 34-503 limits assumed: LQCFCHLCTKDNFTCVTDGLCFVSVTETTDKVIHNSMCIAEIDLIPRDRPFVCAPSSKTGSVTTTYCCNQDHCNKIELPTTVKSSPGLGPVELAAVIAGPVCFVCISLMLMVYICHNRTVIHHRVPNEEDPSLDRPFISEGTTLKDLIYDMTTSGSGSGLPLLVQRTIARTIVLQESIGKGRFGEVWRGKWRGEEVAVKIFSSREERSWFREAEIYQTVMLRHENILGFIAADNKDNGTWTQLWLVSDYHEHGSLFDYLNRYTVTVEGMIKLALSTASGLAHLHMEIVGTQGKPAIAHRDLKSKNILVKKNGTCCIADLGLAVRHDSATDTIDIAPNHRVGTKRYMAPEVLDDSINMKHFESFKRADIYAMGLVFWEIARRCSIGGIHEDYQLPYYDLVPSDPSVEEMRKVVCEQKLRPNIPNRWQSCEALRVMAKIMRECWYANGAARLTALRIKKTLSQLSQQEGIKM
UniProt P36896, 24-505 limits assumed: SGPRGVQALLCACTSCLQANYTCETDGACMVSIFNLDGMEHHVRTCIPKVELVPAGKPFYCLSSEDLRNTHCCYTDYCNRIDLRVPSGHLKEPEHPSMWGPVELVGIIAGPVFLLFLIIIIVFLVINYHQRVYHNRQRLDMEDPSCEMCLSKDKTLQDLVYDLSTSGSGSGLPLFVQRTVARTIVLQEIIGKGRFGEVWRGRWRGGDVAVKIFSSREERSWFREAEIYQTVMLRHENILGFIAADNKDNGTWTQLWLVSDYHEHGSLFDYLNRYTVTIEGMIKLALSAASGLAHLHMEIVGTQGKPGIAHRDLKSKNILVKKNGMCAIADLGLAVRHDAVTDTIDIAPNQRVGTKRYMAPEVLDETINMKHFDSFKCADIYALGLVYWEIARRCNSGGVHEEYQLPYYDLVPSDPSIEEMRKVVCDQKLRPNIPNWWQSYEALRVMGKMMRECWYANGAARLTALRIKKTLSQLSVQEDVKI

Columns and labels:
CYP1A2 = CYP1A2 (Homo sapiens, UniProt P05177); experiment: CYP time dependent inhibition, CYP1A2; details: 10 μM, 30 min preincubation, HLM
DAPK2 = DAPK2 (Homo sapiens, UniProt Q9UIK4); experiment: Kinase profiling, Lantha; details: 1 μM, KmATP
HUNK = HUNK (Homo sapiens, UniProt P57058); experiment: Kinase profiling, Lantha; details: 1 μM, KmATP
PRKACG = PRKACG (Homo sapiens, UniProt P22612); experiment: Kinase profiling, Lantha; details: 1 μM, KmATP
AAK1 = AAK1 (Homo sapiens, UniProt Q2M2I8); experiment: Kinase profiling, Lantha; details: 1 μM, KmATP
WNK1 = WNK1 (Homo sapiens, UniProt Q9H4A3); experiment: Kinase profiling, Lantha; details: 1 μM, KmATP
MAP3K3 (MEKK3) = MAP3K3 (MEKK3) (Homo sapiens, UniProt Q99759); experiment: Kinase profiling, Lantha; details: 1 μM, KmATP
MAP3K11 (MLK3) = MAP3K11 (MLK3) (Homo sapiens, UniProt Q16584); experiment: Kinase profiling, Lantha; details: 1 μM, KmATP
AMPK (A1/B2/G1) = AMPK (A1/B2/G1) (Homo sapiens, UniProt Q13131); experiment: Kinase profiling, Lantha; details: 1 μM, KmATP
RAF1 Y340D Y341D = RAF1 Y340D Y341D (Homo sapiens, UniProt P04049, Y340D/Y341D); experiment: Kinase profiling, Lantha; details: 10-point CR, top 10 μM
GRK1 = GRK1 (Homo sapiens, UniProt Q15835); experiment: Kinase profiling, Lantha; details: 1 μM, KmATP
PLK4 = PLK4 (Homo sapiens, UniProt O00444); experiment: Kinase profiling, Lantha; details: 1 μM, KmATP
CDK14(PFTK1)/cyclinY = CDK14(PFTK1)/cyclinY (Homo sapiens, UniProt O94921); experiment: Kinase profiling, Lantha; details: 1 μM, KmATP
[1] = test system: PKMYT1 knock out (KO) SKOV3 cells; experiment: CellTiter-Glo growth inhibition, PKMYT1 KO SKOV3 cells; details: 7-day CTG
[2] = Metabolic stability in human liver microsomes (HLM); details: human liver microsomes 1 mg/mL, 1 μM
PDPK1 [3] = target: T1, PDPK1 (Homo sapiens, UniProt O15530); experiment: Kinase profiling, Direct Z-Lyte; details: 1 μM, KmATP
MAPK14 (p38a) = MAPK14 (p38a) (Homo sapiens, UniProt Q16539); experiment: Kinase profiling, Direct Z-Lyte; details: 1 μM, KmATP
MAP3K4 = MAP3K4 (Homo sapiens, UniProt Q9Y6R4); experiment: NanoBRET kinase panel (CELLinib); details: whole-cell NanoBRET
LCK = LCK (Homo sapiens, UniProt P06239); experiment: NanoBRET kinase panel (CELLinib); details: whole-cell NanoBRET
PDPK1 [4] = target: T1, PDPK1; experiment: NanoBRET kinase panel (CELLinib); details: whole-cell NanoBRET
GSK3B = GSK3B (Homo sapiens, UniProt P49841); experiment: NanoBRET kinase panel (CELLinib); details: whole-cell NanoBRET
EPHA5 = EPHA5 (Homo sapiens, UniProt P54756); experiment: NanoBRET kinase panel (CELLinib); details: whole-cell NanoBRET
TGFBR1 = TGFBR1 (Homo sapiens, UniProt P36897); experiment: NanoBRET kinase panel (CELLinib); details: whole-cell NanoBRET
AurKA = AurKA (Homo sapiens, UniProt O14965); experiment: NanoBRET kinase panel (CELLinib); details: whole-cell NanoBRET
EPHB3 = EPHB3 (Homo sapiens, UniProt P54753); experiment: NanoBRET kinase panel (CELLinib); details: whole-cell NanoBRET
KIT = KIT (Homo sapiens, UniProt P10721); experiment: NanoBRET kinase panel (CELLinib); details: whole-cell NanoBRET
EPHB1 = EPHB1 (Homo sapiens, UniProt P54762); experiment: NanoBRET kinase panel (CELLinib); details: whole-cell NanoBRET
ACVR1B = ACVR1B (Homo sapiens, UniProt P36896); experiment: NanoBRET kinase panel (CELLinib); details: whole-cell NanoBRET
FGFR2 = FGFR2 (Homo sapiens, UniProt P21802); experiment: NanoBRET kinase panel (CELLinib); details: whole-cell NanoBRET
OVCAR3 (CCNE1 amp) = experiment: CellTiter-Glo growth inhibition, OVCAR3 (CCNE1 amp)
OVCAR3 tumors = experiment: Human ovarian OVCAR3 cell line-derived xenograft model in female SCID mice; details: for tumor regression: Day 21, P<0.001
[5] = In vivo pharmacokinetics in male CD-1 mice (I.V. or P.O.)
[6] = In vivo pharmacokinetics in male Han Wistar rats at high dose (P.O., 10/30/100 mg/kg)
CYP2C19 = CYP2C19 (Homo sapiens, UniProt P33261); experiment: CYP time dependent inhibition, CYP2C19; details: 10 μM, 30 min preincubation, HLM

Structure (SMILES): Cc1nc(C(F)(F)F)c2c(C(N)=O)c(N)n(-c3c(C)ccc(O)c3C)c2n1 (single isomer, unassigned)
- % time dependent inhibition (TDI), CYP1A2 (CYP1A2): less than 20%
- MEAN INHIBITION (DAPK2): 6.764%
- MEAN INHIBITION (HUNK): 11.675%
- MEAN INHIBITION (PRKACG): 7.319%
- MEAN INHIBITION (AAK1): −3.536%
- MEAN INHIBITION (WNK1): 1.189%
- MEAN INHIBITION (MAP3K3 (MEKK3)): 8.215%
- MEAN INHIBITION (MAP3K11 (MLK3)): −1.121%
- MEAN INHIBITION (AMPK (A1/B2/G1)): 1.152%
- IC50 (RAF1 Y340D Y341D): 49 nM
- MEAN INHIBITION (GRK1): 3.488%
- MEAN INHIBITION (PLK4): 1.109%
- MEAN INHIBITION (CDK14(PFTK1)/cyclinY): 12.615%
- sensitivity of PKMYT1 KO SKOV3 cells [1]: resistant
- GI50 ([1]; PKMYT1 deletion): > 20 µM
- HLM (CLint) [2]: <5.834 µL/min/mg
- MEAN INHIBITION (PDPK1 [3]): −1.600%
- MEAN INHIBITION (MAPK14 (p38a)): 8.973%
- IC50 (MAP3K4): > 50 µM
- IC50 (LCK): > 50 µM
- IC50 (PDPK1 [4]): > 50 µM
- IC50 (GSK3B): 21.6 µM
- IC50 (EPHA5): 15 µM
- IC50 (TGFBR1): > 50 µM
- IC50 (AurKA): > 50 µM
- IC50 (EPHB3): 1790 nM
- IC50 (KIT): 4.29 µM
- IC50 (EPHB1): 6.32 µM
- IC50 (ACVR1B): 27.1 µM
- IC50 (FGFR2): > 50 µM
- GI50 (OVCAR3 (CCNE1 amp); read-out: GI50 VALUES, individual values, 7 days CTG): 2880 nM and 1890 nM and 1060 nM
- GI50 (OVCAR3 (CCNE1 amp); read-out: MEAN GI50 (N = 3), mean of N = 3, 7 days CTG): 1940 nM
- tumor regression (OVCAR3 tumors; 10 mg/kg BID + 20 mg/kg gemcitabine i.p. once weekly): 31%
- regrowth to 200 mm^3 tumor volumes following cessation of treatment (OVCAR3 tumors; 10 mg/kg BID + gemcitabine): 11 days
- Regression (TGI vs vehicle, Day 21) (OVCAR3 tumors; 10 mg/kg BID Compound 137, Isomer 2 orally + 20 mg/kg Gemcitabine intraperitoneal once weekly): 31% Regression
- TGI vs vehicle (Day 21) (OVCAR3 tumors; 10 mg/kg BID orally): 25%
- tumor growth inhibition (TGI) (OVCAR3 tumors; 10 mg/kg BID, Day 21, P>0.05 non-significant): 25%
- TGI vs vehicle (Day 21) (OVCAR3 tumors; 30 mg/kg BID orally): 12%
- tumor growth inhibition (TGI) (OVCAR3 tumors; 30 mg/kg BID, Day 21, P>0.05 non-significant): 12%
- tumor regression (OVCAR3 tumors; 50 mg/kg BID + 20 mg/kg gemcitabine i.p. once weekly): 62%
- regrowth to 200 mm^3 tumor volumes following cessation of treatment (OVCAR3 tumors; 50 mg/kg BID + gemcitabine): 35 days
- Regression (TGI vs vehicle, Day 21) (OVCAR3 tumors; 50 mg/kg BID Compound 137, Isomer 2 orally + 20 mg/kg Gemcitabine intraperitoneal once weekly): 62% Regression
- TGI vs vehicle (Day 21) (OVCAR3 tumors; 100 mg/kg BID orally): 77%
- tumor growth inhibition (TGI) (OVCAR3 tumors; 100 mg/kg BID, Day 21, P<0.01): 77%
- efficacy of combinations versus monotherapies (OVCAR3 tumors; 10 or 50 mg/kg BID + gemcitabine): outperformed Compound 137, Isomer 2 monotherapy and gemcitabine monotherapy
- AUC ([5]; I.V. 0.5 mg/kg): 1.34 µmol·h/L
- CL ([5]; I.V. 0.5 mg/kg): 16.7 mL/min/kg
- Cmax ([5]; I.V. 0.5 mg/kg): 1400 nM
- Tmax ([5]; I.V. 0.5 mg/kg): 1.8 min
- VSS ([5]; I.V. 0.5 mg/kg): 7.87 L/kg
- t1/2 ([5]; I.V. 0.5 mg/kg): 10.3 h
- AUC ([5]; P.O. 1.0 mg/kg): 1.84 µmol·h/L
- Cmax ([5]; P.O. 1.0 mg/kg): 300 nM
- Tmax ([5]; P.O. 1.0 mg/kg): 30 min
- t1/2 ([5]; P.O. 1.0 mg/kg): 5.37 h
- AUC ([6]; P.O. 10 mg/kg): 12.2 µM·h
- Cmax ([6]; P.O. 10 mg/kg): 1390 nM
- Tmax ([6]; P.O. 10 mg/kg): 40.0 min
- t1/2 ([6]; P.O. 10 mg/kg): 6.77 h
- AUC ([6]; P.O. 30 mg/kg): 41.8 µM·h
- Cmax ([6]; P.O. 30 mg/kg): 4520 nM
- Tmax ([6]; P.O. 30 mg/kg): 20.0 min
- t1/2 ([6]; P.O. 30 mg/kg): 9.10 h
- % time dependent inhibition (TDI), CYP2C19 (CYP2C19): less than 20%
